According to PubChem BioAssay AID1199 (EPA DSSTox, 2008):
The source made the active and inactive calls.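 Rule for the calls: active = a tumour-causing dose and a tumour site recorded for mice in at least one sex group; inconclusive = only government mouse studies exist and were judged inadequate; inactive = mouse studies exist but none gave tumours.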

Tested on: mouse carcinogenicity bioassay, TD50 from CPDB
Test: DSSTox (CPDBAS) Carcinogenic Potency Database Summary Mouse Bioassay Results
Settings: TargetSites_Mouse_Female: no positive results; for outcome: TD50_Mouse_Note: no positive results
Text: The Carcinogenic Potency Database (CPDB) is a unique and widely used international resource of the results of over 6500 chronic, long-term animal cancer tests on over 1500 chemical substances. The CPDB provides easy access to the bioassay literature, with qualitative and quantitative analyses of both positive and negative experiments that have been published over the past 50 years in the general literature and by the National Cancer Institute/National Toxicology Program. The CPDB standardizes the diverse literature of cancer bioassays that vary widely in protocol, histopathological examination and nomenclature, and in the published author's choices of what information to provide in their papers. Results are reported in the CPDB for tests in rats, mice, hamsters, dogs, and nonhuman primates, and are based on the most positive result among all experiments for each sex-species. The DSSTox CPDBAS (all species) file incorporates data from the CPDB Summary Tables for the full list of over 1500 chemical substances tested in at least one species. Summary bioassay results for Mouse (TD50, tumor sites, male, female, both sexes) are provided in the CPDB Summary Tables and the DSSTox CPDBAS file for over 1000 chemical substances.
TD50 is a standardized quantitative measure of carcinogenic potency (analogous to an LD50) and is reported in the CPDB Summary Table for each species. Activity Score for actives is computed by mapping of LOG10 (1/TD50_Mouse_mmol) activity values spanning range [MIN, MAX] onto Integer 1-100 Activity Score range, where 100 is highest potency and 1 is lowest: Activity Score = 100 * INTEGER[(log10(1/Activity) - MIN)/(MAX […] MIN)]. If activity is reported but no TD50_Mouse_mmol value is computed, such as for a mixture, the Activity Score is assigned the activity value "50". […] Target sites are reported for each sex-species group with a positive result in the CPDB on the basis of a positive author's opinion for the particular site, using all results from both the general literature and NCI/NTP bioassays. If a chemical has two or more target sites listed, the results may be from different experiments, and a single site may be a target organ in more than one experiment, as well. Blank entry in TargetSites field indicates no results reported.

Row | Compound | outcome | Potency [mmol/kg/day]
1 | Cc1ccc([N+](=O)[O-])cc1[N+](=O)[O-] | inactive; no positive results | 0.161
2 | O=[N+]([O-])OCC(CO[N+](=O)[O-])(CO[N+](=O)[O-])CO[N+](=O)[O-] | inactive; no positive results | 
3 | COP(C)(=O)OC | inactive; ntp bioassay inadequate | 
4 | ClCl | inactive; no positive results | 
